Results taken from US20250195521A1 (Revolution Medicines, Inc., priority 2020, published 2025).

Chains of the proteins cited; added tags and fusions are not shown. Lines headed by an entry give the natural chain unless they say otherwise; changes in a name come on top. A line that says so, or that is headed by a name, gives the form on record, which may keep a tag or linker. Residues count along the entry.
UniProt P01116, 1-164 with tags or gaps limits assumed: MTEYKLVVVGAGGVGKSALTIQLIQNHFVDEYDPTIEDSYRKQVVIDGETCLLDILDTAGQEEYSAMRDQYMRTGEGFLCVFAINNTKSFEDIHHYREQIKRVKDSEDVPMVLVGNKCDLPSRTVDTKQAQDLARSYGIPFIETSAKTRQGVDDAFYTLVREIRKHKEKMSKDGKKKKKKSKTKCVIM
UniProt P01116, 1-164 with tags or gaps G12S limits assumed: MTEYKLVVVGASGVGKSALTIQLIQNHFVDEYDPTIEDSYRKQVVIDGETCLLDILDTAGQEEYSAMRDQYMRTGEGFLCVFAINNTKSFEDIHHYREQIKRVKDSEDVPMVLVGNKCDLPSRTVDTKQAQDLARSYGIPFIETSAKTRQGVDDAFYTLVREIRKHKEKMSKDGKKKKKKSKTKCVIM
UniProt P01116, 1-164 with tags or gaps G12V limits assumed: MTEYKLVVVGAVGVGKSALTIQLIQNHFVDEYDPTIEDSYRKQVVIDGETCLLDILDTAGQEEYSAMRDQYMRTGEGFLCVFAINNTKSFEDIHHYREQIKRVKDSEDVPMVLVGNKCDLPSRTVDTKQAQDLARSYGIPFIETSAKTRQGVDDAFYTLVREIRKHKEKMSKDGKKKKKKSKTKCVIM
UniProt P01116, 1-164 with tags or gaps G13C limits assumed: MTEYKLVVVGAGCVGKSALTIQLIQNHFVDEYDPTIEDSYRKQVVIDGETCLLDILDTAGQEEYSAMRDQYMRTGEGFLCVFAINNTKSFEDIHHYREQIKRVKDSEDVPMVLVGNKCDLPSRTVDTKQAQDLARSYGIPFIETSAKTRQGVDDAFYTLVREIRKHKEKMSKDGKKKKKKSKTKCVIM
UniProt P01116, 1-164 with tags or gaps G12D limits assumed: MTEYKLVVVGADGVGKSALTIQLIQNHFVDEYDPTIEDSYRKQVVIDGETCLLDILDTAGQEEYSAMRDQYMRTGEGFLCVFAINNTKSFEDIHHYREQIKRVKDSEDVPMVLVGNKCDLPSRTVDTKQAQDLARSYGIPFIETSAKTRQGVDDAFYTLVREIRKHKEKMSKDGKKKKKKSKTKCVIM
UniProt P01116, 1-164 with tags or gaps G13D limits assumed: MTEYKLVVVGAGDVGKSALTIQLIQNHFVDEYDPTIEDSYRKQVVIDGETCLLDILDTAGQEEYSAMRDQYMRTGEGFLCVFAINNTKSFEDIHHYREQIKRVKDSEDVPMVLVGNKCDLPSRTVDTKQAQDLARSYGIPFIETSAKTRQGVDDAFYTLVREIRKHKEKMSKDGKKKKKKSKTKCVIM
UniProt P01116, 1-164 with tags or gaps Q61H limits assumed: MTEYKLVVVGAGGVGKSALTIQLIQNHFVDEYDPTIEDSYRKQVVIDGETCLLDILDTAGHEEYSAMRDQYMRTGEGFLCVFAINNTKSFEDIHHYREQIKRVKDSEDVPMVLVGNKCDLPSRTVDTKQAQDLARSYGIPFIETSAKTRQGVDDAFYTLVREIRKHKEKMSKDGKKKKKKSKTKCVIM
UniProt P01116, 1-164 with tags or gaps G12C limits assumed: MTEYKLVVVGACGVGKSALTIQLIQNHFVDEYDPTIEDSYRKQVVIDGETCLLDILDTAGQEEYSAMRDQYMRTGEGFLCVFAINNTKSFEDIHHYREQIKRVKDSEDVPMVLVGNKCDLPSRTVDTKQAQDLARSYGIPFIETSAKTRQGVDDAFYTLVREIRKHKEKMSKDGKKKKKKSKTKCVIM
UniProt P62937, whole entry: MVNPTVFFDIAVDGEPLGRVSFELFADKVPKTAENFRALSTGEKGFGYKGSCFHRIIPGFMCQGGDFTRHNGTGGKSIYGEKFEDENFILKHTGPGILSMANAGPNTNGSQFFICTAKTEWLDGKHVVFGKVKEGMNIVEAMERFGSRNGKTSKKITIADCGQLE
UniProt P01111, whole entry: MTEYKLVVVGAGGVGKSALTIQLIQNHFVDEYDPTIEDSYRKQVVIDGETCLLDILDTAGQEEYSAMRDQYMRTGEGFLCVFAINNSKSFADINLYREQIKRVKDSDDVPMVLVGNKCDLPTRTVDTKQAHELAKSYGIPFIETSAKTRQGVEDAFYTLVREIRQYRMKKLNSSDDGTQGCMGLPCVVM

Key:
AsPC-1 (K-Ras G12D) [1] = test: Potency assay: pERK; assay type: cell-based, human; conditions: read-out: pERK EC50; AsPC-1 KRAS G12D
NCI-H358 (K-Ras G12C) [2] = test: CellTiter-Glo cell viability assay, H358; assay type: cell-based, human; conditions: read-out: H358 Cell Viability IC50, 5-day treatment
AsPC-1 (K-Ras G12D) [3] = test: CellTiter-Glo cell viability assay, AsPC-1; assay type: cell-based, human; conditions: read-out: AsPC-1 Cell Viability IC50, 5-day treatment
KRAS G13D = KRAS G13D (Homo sapiens (Human), UniProt P01116+P62937, G13D); test: Ras-Raf disruption/FRET/MOA assay, KRAS G13D; assay type: biochemical; conditions: read-out: KRAS G13D FRET IC50
KRAS G13C = KRAS G13C (Homo sapiens (Human), UniProt P01116+P62937, G13C); test: Ras-Raf disruption/FRET/MOA assay, KRAS G13C; assay type: biochemical; conditions: read-out: KRAS G13C FRET IC50
KRAS G12S = KRAS G12S (Homo sapiens (Human), UniProt P01116+P62937, G12S); test: Ras-Raf disruption/FRET/MOA assay, KRAS G12S; assay type: biochemical; conditions: read-out: KRAS G12S FRET IC50
KRAS G12D = KRAS G12D (Homo sapiens (Human), UniProt P01116+P62937, G12D); test: Ras-Raf disruption/FRET/MOA assay, KRAS G12D; assay type: biochemical; conditions: read-out: KRAS G12D FRET IC50
KRAS G12V = KRAS G12V (Homo sapiens (Human), UniProt P01116+P62937, G12V); test: Ras-Raf disruption/FRET/MOA assay, KRAS G12V; assay type: biochemical; conditions: read-out: KRAS G12V FRET IC50
KRAS WT = KRAS WT (Homo sapiens (Human), UniProt P01116+P62937); test: Ras-Raf disruption/FRET/MOA assay, KRAS WT; assay type: biochemical; conditions: read-out: KRAS WT FRET IC50
KRAS Q61H = KRAS Q61H (Homo sapiens (Human), UniProt P01116+P62937, Q61H); test: Ras-Raf disruption/FRET/MOA assay, KRAS Q61H; assay type: biochemical; conditions: read-out: KRAS Q61H FRET IC50
NRAS WT = NRAS WT (Homo sapiens (Human), UniProt P01111+P62937); test: Ras-Raf disruption/FRET/MOA assay, NRAS WT; assay type: biochemical; conditions: read-out: NRAS WT FRET IC50
[4] = biological target: KRAS G12S binding to BRAF RBD (Homo sapiens (Human), UniProt P01116+P62937, G12S); test: Ras-Raf disruption/FRET/MOA assay, KRAS G12S; assay type: biochemical; conditions: read-out: KRAS G12S FRET IC50
[5] = biological target: KRAS G12V binding to BRAF RBD (Homo sapiens (Human), UniProt P01116+P62937, G12V); test: Ras-Raf disruption/FRET/MOA assay, KRAS G12V; assay type: biochemical; conditions: read-out: KRAS G12V FRET IC50
[6] = biological target: KRAS WT binding to BRAF RBD (Homo sapiens (Human), UniProt P01116+P62937); test: Ras-Raf disruption/FRET/MOA assay, KRAS WT; assay type: biochemical; conditions: read-out: KRAS WT FRET IC50
[7] = tested on: K-Ras G12C (NCI-H358 cells); test: Potency assay: pERK in NCI-H358 cells; assay type: cell-based, human; conditions: read-out: H358 pERK (K-Ras G12C) EC50; NCI-H358
NCI-H358 (K-Ras G12C) [8] = test: CellTiter-Glo cell viability assay, NCI-H358; assay type: cell-based, human; conditions: read-out: H358 Cell Viability (K-Ras G12C) IC50; 5-day treatment
[9] = biological target: K-Ras G12C(GMP-PNP) binding to BRAF RBD (Homo sapiens (Human), UniProt P01116+P62937, G12C); test: Disruption of BRAF RBD interaction with K-Ras (FRET / MOA assay), K-Ras G12C; assay type: biochemical; conditions: read-out: FRET (K-Ras G12C) IC50
[10] = biological target: KRAS G13C binding to BRAF RBD (Homo sapiens (Human), UniProt P01116+P62937, G13C); test: Ras-Raf disruption/FRET/MOA assay, KRAS G13C; assay type: biochemical; conditions: read-out: FRET (K-Ras G13C) IC50

| SMILES | IC50 [4] [nM] | IC50 [5] [nM] | IC50 [6] [nM] | EC50 [7] [nM] | IC50 (NCI-H358 (K-Ras G12C) [8]) [nM] | IC50 [9] [nM] | IC50 [10] [nM] | EC50 (AsPC-1 (K-Ras G12D) [1]) [nM] | IC50 (NCI-H358 (K-Ras G12C) [2]) [nM] | IC50 (AsPC-1 (K-Ras G12D) [3]) [nM] | IC50 (KRAS G13D) [nM] | IC50 (KRAS G13C) [nM] | IC50 (KRAS G12S) [nM] | IC50 (KRAS G12D) [nM] | IC50 (KRAS G12V) [nM] | IC50 (KRAS WT) [nM] | IC50 (KRAS Q61H) [nM] | IC50 (NRAS WT) [nM] |
| --- | --- | --- | --- | --- | --- | --- | --- | --- | --- | --- | --- | --- | --- | --- | --- | --- | --- | --- |
| CCn1c(-c2cccnc2[C@H](C)OC)c2c3cc(ccc31)-c1cc(O)cc(c1)C[C@H](NC(=O)[C@H](C1CCCC1)N(C)C(=O)CN(C)C(=O)[C@H]1[C@@H](C3CC3)N1CCCOC)C(=O)N1CCC[C@H](N1)C(=O)OCC(C)(C)C2 (some centres unmarked) | – | – | – | – | – | – | – | < 5000 | 10 to 100 | 10 to 100 | 100 to 1000 | 10 to 100 | 10 to 100 | 100 to 1000 | 10 to 100 | 10 to 100 | 10 to 100 | 10 to 100 |
| C=CC(=O)N1CC[C@H](C(=O)N(C)[C@H](C(=O)N[C@H]2Cc3cc(O)cc(c3)-c3ccc4c(c3)c(c(-c3cccnc3[C@H](C)OC)n4CC)CC(C)(C)COC(=O)[C@@H]3CCCN(N3)C2=O)C(C)C)C1 | 10 to 100 | 10 to 100 | 10 to 100 | – | – | – | – | – | – | – | – | – | – | – | – | – | – | – |
| CCn1c(-c2cccnc2[C@H](C)OC)c2c3cc(ccc31)-c1cc(O)cc(c1)C[C@H](NC(=O)[C@H](C(C)C)N(C)C(=O)CN(C)C(=O)[C@H]1CN1CCCOC(C)=O)C(=O)N1CCC[C@H](N1)C(=O)OCC(C)(C)C2 (some centres unmarked) | – | – | – | – | – | – | – | < 5000 | < 10 | 100 to 1000 | 100 to 1000 | 10 to 100 | 10 to 100 | 100 to 1000 | 100 to 1000 | 100 to 1000 | 10 to 100 | 100 to 1000 |
| CCn1c(-c2cccnc2[C@H](C)OC)c2c3cc(ccc31)-c1cc(O)cc(c1)C[C@H](NC(=O)[C@H](C(C)C)N(C)C(=O)CN(C)C(=O)[C@@H]1CN1CCCOC(C)=O)C(=O)N1CCC[C@H](N1)C(=O)OCC(C)(C)C2 (some centres unmarked) | – | – | – | – | – | – | – | < 5000 | < 10 | 100 to 1000 | 100 to 1000 | 10 to 100 | 10 to 100 | 10 to 100 | 10 to 100 | 10 to 100 | 10 to 100 | 10 to 100 |

Now from value to compound, other results behind:

| IC50 [4] [nM] | IC50 [5] [nM] | IC50 [6] [nM] | EC50 [7] [nM] | IC50 (NCI-H358 (K-Ras G12C) [8]) [nM] | IC50 [9] [nM] | IC50 [10] [nM] | SMILES | EC50 (AsPC-1 (K-Ras G12D) [1]) [nM] | IC50 (NCI-H358 (K-Ras G12C) [2]) [nM] | IC50 (AsPC-1 (K-Ras G12D) [3]) [nM] | IC50 (KRAS G13D) [nM] | IC50 (KRAS G13C) [nM] | IC50 (KRAS G12S) [nM] | IC50 (KRAS G12D) [nM] | IC50 (KRAS G12V) [nM] | IC50 (KRAS WT) [nM] | IC50 (KRAS Q61H) [nM] | IC50 (NRAS WT) [nM] |
| --- | --- | --- | --- | --- | --- | --- | --- | --- | --- | --- | --- | --- | --- | --- | --- | --- | --- | --- |
| – | – | – | 28 | 11 | 34 | 580 | C=CC(=O)N1CC[C@H](C(=O)N(C)[C@H](C(=O)N[C@H]2Cc3cc(O)cc(c3)-c3ccc4c(c3)c(c(-c3ccc(N5CCN(C)CC5)nc3)n4CC)CC(C)(C)COC(=O)[C@@H]3CCCN(N3)C2=O)C(C)C)C1 [A89b] | – | – | – | – | – | – | – | – | – | – | – |
| – | – | – | 3 | 0.8 | 9 | 820 | C=CC(=O)N1CC[C@H](C(=O)N(C)[C@H](C(=O)N[C@H]2Cc3cc(O)cc(c3)-c3ccc4c(c3)c(c(-c3ccc(N5CCN(C)CC5)nc3)n4CC)CC(C)(C)COC(=O)[C@@H]3CCCN(N3)C2=O)C(C)C)C1 [A89a] | – | – | – | – | – | – | – | – | – | – | – |
| 10 to 100 | 10 to 100 | 10 to 100 | – | – | – | – | C=CC(=O)N1CC[C@H](C(=O)N(C)[C@H](C(=O)N[C@H]2Cc3cc(O)cc(c3)-c3ccc4c(c3)c(c(-c3cnccc3[C@H](C)OC)n4CC)CC(C)(C)COC(=O)[C@@H]3CCCN(N3)C2=O)C(C)C)C1 [Compound A76] | – | – | – | – | – | – | – | – | – | – | – |
